Measured values: patent US20240425555A1, “MUTANT BRD4 POLYPEPTIDES AND METHODS OF USE THEREOF” (Northwestern University, priority 2023, published 2024)

Target: PTEFb (Homo sapiens+)
Test: GFP IP-MS and GFP IP western blot of GFP-tagged BRD4 constructs
Type: binding
Conditions: GFP-tagged; Dox 50 nM 2 days

- interaction with PTEFb (GFP IP-MS): cannot pull down PTEFb
Substance: CTM: GFP-tagged CTM-only construct, peptide of 37 residues (ELARKREQERRRREAMAATIDMNFQSDLLSIFEENLF; left off: large carriers)
